Test results taken from EP0415456A2, “Xanthine compounds” (priority 1989, dated 1991).

Amino acid sequences for entries named in this document (tags omitted).
UniProt P47745, whole entry: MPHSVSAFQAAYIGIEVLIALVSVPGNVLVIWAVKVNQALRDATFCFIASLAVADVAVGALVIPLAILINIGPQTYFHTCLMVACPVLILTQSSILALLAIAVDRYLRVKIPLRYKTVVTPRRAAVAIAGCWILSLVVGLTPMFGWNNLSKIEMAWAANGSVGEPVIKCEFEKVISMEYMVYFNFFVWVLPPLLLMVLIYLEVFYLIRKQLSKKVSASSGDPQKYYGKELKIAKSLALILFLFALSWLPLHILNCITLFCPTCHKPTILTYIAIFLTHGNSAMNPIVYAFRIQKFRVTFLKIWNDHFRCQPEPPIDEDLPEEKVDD

Molecular target: T1, Adenosine A₁ Receptor (Cavia porcellus, UniProt P47745)
T1 construct: Cerebrum of a guinea pig was suspended; from tissue; host or cells: guinea pig cerebrum membrane preparation
Assay: Adenosine A1 receptor binding (3H-CHA binding)
Design: species or system guinea pig
Settings: for inhibition at 10 µM / inhibition at 100 µM: read-out: A₁ Receptor Inhibition (%)

Row | SMILES | Ki (calculated from Cheng-Prusoff's equation, ³H-CHA, guinea pig cerebrum) [µM] | inhibition at 10 µM [%] | inhibition at 100 µM [%]
1 | Cn1c(=O)c2[nH]cnc2n(C)c1=O [Theophylline, 1,3-dimethylxanthine, reference compound] | 23 | 33 | 74
2 | Nc1nc2ccc(Cl)cc2c2nc(-c3ccco3)nn12 [CGS 15943, reference compound] |  | 99 | 96
